In US10087215B2, “Stabilized SOS1 peptides” (DANA-FARBER CANCER INSTITUTE, INC., priority 2013, dated 2018):

Experiments:
wildtype KRAS = wildtype KRAS (Homo sapiens, UniProt P01116); test: Nucleotide (GTP) exchange assay with mant-GTP; assay type: biochemical; conditions: mant-GTP loaded KRAS, excess unlabeled GTP (10x)
Method: KRAS was loaded with equimolar mant-GTP (a fluorescent GTP analog), and excess unlabeled GTP (10×) is then added to the reaction mixture. The observed decrease in fluorescence reflects the GTP turnover activity at the KRAS active site. SAH-SOS peptides reduce the GTP turnover activity, as reflected by a shift of the curves from the no peptide negative control toward the inhibited exchange (2 mM MgCl2) positive control (FIG. 10).
Nucleotide exchange assays were performed as an association-dissociation experiment in which mant-GTP first associates with K-Ras followed by a dissociation step in which excess unlabeled GTP outcompetes mant-GTP, thus decreasing the fluorescence, as previously described^5. A kinetic readout of fluorescence, corresponding to the dissociation step, was recorded on a Tecan X1000 fluorescence spectrometer (excitation 360 nm, emission 440 nm). The rate of nucleotide exchange was determined by fitting a single exponential function to the dissociation phase readout from the experiment (Prism software, GraphPad). Reactions were performed with the indicated amounts of SAH-SOS peptides in buffer containing 25 mM Tris (pH 7.5), 50 mM NaCl, 1 mM DTT with 2 μM wildtype KRAS, 2 μM mantGTP and 200 μM unlabeled GTP. 2 mM MgCl2 was added as a […] to inhibit mantGTP release.

[1] = tested on: mouse embryonic fibroblasts; conditions: 0.5 μM FITC-conjugated peptide, 4 hours

## CC[C@H](C)[C@H](NC(=O)CNC(=O)[C@H](Cc1ccccc1)NC(=O)[C@H](Cc1ccccc1)NC(=O)CCNC(=S)Nc1ccc2c(c1)C(=O)OC21c2ccc(O)cc2Oc2cc(O)ccc21)C(=O)N[C@@]1(C)CCCC=CCCC[C@@](C)(C(=O)N[C@@H](CC(C)C)C(=O)N[C@@H](CCCCN)C(=O)N[C@H](C(=O)N[C@@H](CCC(=O)O)C(=O)N[C@@H](CCC(=O)O)C(=O)NCC(=O)N[C@@H](CC(N)=O)C(=O)N[C@@H](CCCNC(=N)N)C(=O)N[C@@H](CCCNC(=N)N)C(N)=O)[C@@H](C)O)NC(=O)[C@H](CC(N)=O)NC(=O)[C@H]([C@@H](C)O)NC(=O)[C@H](CC(C)C)NC1=O [SAH-SOSC3, FFGIXLTNXLKTEEGNRR]
Wildtype KRAS
  GTP exchange activity of KRAS: reduce the GTP exchange activity of KRAS in vitro in a dose-responsive manner
[1]
  cellular uptake: cellular uptake
